These results are taken from article PMC5355877, “The development of novel LTA4H modulators to selectively target LTB4 generation” (Scientific Reports, 2017).

As usually defined, the IC50 is the midpoint of a concentration-inhibition curve.

This test deals with T1, recombinant human LTA4H (aminopeptidase, PGP substrate) (Homo sapiens, UniProt P09960).
T1 construct: purchased Cayman Chemicals
T1 sequence (P09960 1-611): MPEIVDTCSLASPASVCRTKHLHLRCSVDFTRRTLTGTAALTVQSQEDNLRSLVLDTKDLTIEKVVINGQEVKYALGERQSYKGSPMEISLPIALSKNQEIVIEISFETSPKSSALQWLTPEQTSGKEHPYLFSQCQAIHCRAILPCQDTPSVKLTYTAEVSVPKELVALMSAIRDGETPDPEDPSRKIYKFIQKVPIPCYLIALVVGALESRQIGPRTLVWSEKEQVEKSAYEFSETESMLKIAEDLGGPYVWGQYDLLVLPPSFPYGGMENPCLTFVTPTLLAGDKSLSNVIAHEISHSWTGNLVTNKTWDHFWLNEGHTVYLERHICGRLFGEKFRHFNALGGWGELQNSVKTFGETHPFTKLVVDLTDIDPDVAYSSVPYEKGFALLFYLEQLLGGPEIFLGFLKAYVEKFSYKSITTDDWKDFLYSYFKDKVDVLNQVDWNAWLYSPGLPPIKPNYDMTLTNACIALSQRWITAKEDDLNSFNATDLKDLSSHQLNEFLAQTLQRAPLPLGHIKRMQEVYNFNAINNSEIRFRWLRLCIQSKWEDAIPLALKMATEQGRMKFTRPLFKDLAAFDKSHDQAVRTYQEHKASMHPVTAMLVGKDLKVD
Description: LTA4H aminopeptidase activity: PGP degradation by recombinant human LTA4H. The class given is biochemical. Conditions: Table 1, read-out: Aminopeptidase IC50 ± SEM. The procedure: For peptide quantification in serum, PGP and AcPGP were measured using a MDS Sciex API-4000 spectrometer (Applied Biosystems, Foster City, CA) equipped with a Shimadzu HPLC (Columbia, MD). For peptide quantification from degradation experiments, PGP and AcPGP were measured using a Thermo Accela Pump and Autosampler coupled to a Thermo TSQ Quantum Access. […] Peak area was measured, and PGP/AcPGP peptide concentrations were calculated using a relative standard curve method as previously described.
Mouse serum (diluted 1/10 in PBS) or recombinant human LTA4H (0.1 μg/ml; Cayman Chemicals, Michigan, USA) were incubated with 0.4 mM PGP at 37 °C in 5% CO2 for varying periods of time. Concentrations of PGP remaining were subsequently quantified by ESI-LC/MS/MS (as discussed above) by comparison with PGP standards. The percentage of peptide degraded was determined relative to control samples of 0.4 mM PGP alone. PGP degradation was also assessed by measurement of free proline released and its ensuing reaction with Ninhydrin (as discussed below). […]
To assess free proline liberated, aliquots from PGP degradation experiments were diluted 1 in 10 in PBS (to a final volume of 250 μl). […] The reaction mixture was heated at 100 °C for 60 minutes, allowed to cool to room temperature and the proline containing fraction extracted with 500 μl of toluene and optical density measured at 520 nm.

Each structure is given as a SMILES string.

Take `O=C(O)CCCN1CCC[C@H]1COc1ccc(Oc2ccc(Cl)cc2)cc1` [DG-051, 4-[(2S)-2-{[4-(4-chlorophenoxy)phenoxy]methyl}-1-pyrrolidinyl]butanoic acid, reference compound]: the half-inhibitory concentration (IC50) is 150 ± 19.4 nM.

With `CN(CCCOc1ccc(Cc2ccccc2)cc1)CCC(=O)O.Cl` [SC57461A, 3-[methyl[3-[4-(phenylmethyl)phenoxy]propyl]amino]propanoic acid HCl], the concentration for half-maximal inhibition (IC50) worked out at 74 ± 7.3 nM.
